Values of other authors in patent publication US20030087395A1, “Cardiotrophin-like cytokine” (Human Genome Sciences, Inc., priority 1997, published 2003).

Key:
GAS or ISRE = conditions: element bound; adapted from Schidler and Darnell review; cited from earlier work
STATS = conditions: numbers of the STATs activated; adapted from Schidler and Darnell review; cited from earlier work

Row | Molecule | GAS or ISRE (GAS or ISRE) | STATS (STATS)
1 | IL-2: g-C family ligand (lymphocytes) | GAS | –
2 | IL-3: gp140 family ligand (myeloid) (protein, UniProt P08700 20-152, looked up) Interleukin-3: APMTQTTPLKTSWVNCSNMIDEIITHLKQPPLPLLDFNNLNGEDQDILMENNLRRPNLEAFNRAVKSLQNASAIESILKNLLPCLPLATAAPTRHPIHIKDGDWNEFRRKLTFYLKTLENAQAQQTTLSLAIF | GAS | 5
